Read-outs that look alike come from different tables or passages of the source.
Type: in vivo, human
Conditions: for PTR (peak-to-trough ratio): geometric mean; for CL/F: geometric mean (%CV)
[1] = clesacostat 15 mg + ervogastat 300 mg b.i.d., Day 14
[2] = clesacostat 15 mg b.i.d. alone, Day 7

COc1cc(C(=O)N2CCC3(CC2)CC(=O)c2c(cnn2C(C)C)C3)cc(-c2ccc(C(=O)O)cc2)n1 [clesacostat]
PTR (peak-to-trough ratio) [1]: 2.41 h | CL/F [1]: 1.58 (23) L/h | PTR (peak-to-trough ratio) [2]: 1.92 h | CL/F [2]: 1.24 (26) L/h

Reference: PMC10870243 (Clinical and Translational Science, 2024)
